Assays:
[1] = Drug recovery in the Sorin ECMO circuit; conditions: phosphorylcholine-coated circuit, whole human blood, 37°C, HPLC-MS/MS, % of 2 min concentration, single measurement
[2] = Control group: spontaneous drug degradation in whole blood at 37°C; conditions: control of Sorin experiment; whole human blood, water bath 37°C 12 h, no circuit; HPLC-MS/MS; % of 2 min concentration; single measurement

CC[C@H](C)CCCCC(=O)N[C@@H](CCN)C(=O)N[C@H](C(=O)N[C@@H](CCN)C(=O)N[C@H]1CCNC(=O)[C@H]([C@@H](C)O)NC(=O)[C@H](CCN)NC(=O)[C@H](CCN)NC(=O)[C@H](CC(C)C)NC(=O)[C@@H](Cc2ccccc2)NC(=O)[C@H](CCN)NC1=O)[C@@H](C)O [Polymyxin B, polymyxin B]
Drug recovery, Sorin circuit, 1 h [1]: 104%
Drug recovery, Control-12 h (Sorin experiment) [2]: 105%

Source: publication PMC8671752, “Effects of ex vivo Extracorporeal Membrane Oxygenation Circuits on Sequestration of Antimicrobial Agents” (Frontiers in Medicine, 2021)
